Results: ChEMBL document CHEMBL1125045, “Hemicholinium-3 congeners as potential antagonists to organophosphate-induced toxicity” (1990)

Species on record: Mus musculus
Assay: Protecting activity after paraoxon induced toxicity.

`CNC(=O)Oc1ccc2c(c1)[C@]1(C)CCN(C)[C@@H]1N2C` showed an ED50 of 0.02 µmol/kg.
